Test [1] deals with T1, human recombinant DPP4 protein (Homo sapiens, UniProt P27487).
T1 construct: purchased Acrobiosystems DP4-H5211
The test can be described thus: Inhibitory activity against DPP4 protease activity (H-Gly-Pro-AMC fluorescence). In kind it is biochemical. On the procedure: The human recombinant DPP4 protein (Acrobiosystems, DP4-H5211) was formulated into a 125 pM working solution with an assay buffer (20 mM Tris-HCl, 100 mM NaCl), and the DPP4 substrate (H-Gly-Pro-AMC.HBr (LEONBIO, 115035-46-6)) was diluted to a 250 µM DPP4 substrate working solution with the assay buffer. 40 µl of DPP4 working solution and 20 µl of compounds at different concentrations (4-fold dilution) were taken, then 40 µl of DPP4 substrate working solution was added, and the mixture was uniformly mixed on a shaker at room temperature for 1 min. The uniformly mixed mixture was reacted at room temperature in the dark for 90 min. Reading was made by microplate reader at excitation and emission wavelengths of 380 nm and 460 nm. The original data was saved, and the IC50 value of the compound was obtained by analyzing the data with Graphpad PRISM.

Sequences of proteins named here, by UniProt entry; tags and fusion partners are left off.
UniProt P27487, whole entry: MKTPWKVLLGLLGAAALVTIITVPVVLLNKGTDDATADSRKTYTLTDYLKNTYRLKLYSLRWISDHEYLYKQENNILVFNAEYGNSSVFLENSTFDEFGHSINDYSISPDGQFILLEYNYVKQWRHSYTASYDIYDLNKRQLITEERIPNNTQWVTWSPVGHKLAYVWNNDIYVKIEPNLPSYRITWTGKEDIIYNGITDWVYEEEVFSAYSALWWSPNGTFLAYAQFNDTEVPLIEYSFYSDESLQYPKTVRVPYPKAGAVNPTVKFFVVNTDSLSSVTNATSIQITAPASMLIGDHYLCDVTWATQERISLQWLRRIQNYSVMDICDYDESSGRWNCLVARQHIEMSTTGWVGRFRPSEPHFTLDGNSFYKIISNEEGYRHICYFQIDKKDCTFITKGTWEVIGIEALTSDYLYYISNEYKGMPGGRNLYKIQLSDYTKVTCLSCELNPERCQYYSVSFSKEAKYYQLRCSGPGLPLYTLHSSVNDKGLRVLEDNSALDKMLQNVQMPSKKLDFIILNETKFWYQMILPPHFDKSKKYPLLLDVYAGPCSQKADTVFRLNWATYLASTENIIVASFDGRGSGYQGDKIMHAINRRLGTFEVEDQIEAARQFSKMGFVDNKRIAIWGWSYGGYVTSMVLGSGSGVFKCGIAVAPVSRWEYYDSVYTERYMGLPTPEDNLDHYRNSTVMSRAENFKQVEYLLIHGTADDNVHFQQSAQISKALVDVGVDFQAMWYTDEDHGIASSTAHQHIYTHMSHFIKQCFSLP

Test [2] has as its target T2, human recombinant FAP protein (Homo sapiens, UniProt Q12884).
T2 construct: purchased Acrobiosystems FAP-H82Q6
T2 sequence (Q12884 1-760): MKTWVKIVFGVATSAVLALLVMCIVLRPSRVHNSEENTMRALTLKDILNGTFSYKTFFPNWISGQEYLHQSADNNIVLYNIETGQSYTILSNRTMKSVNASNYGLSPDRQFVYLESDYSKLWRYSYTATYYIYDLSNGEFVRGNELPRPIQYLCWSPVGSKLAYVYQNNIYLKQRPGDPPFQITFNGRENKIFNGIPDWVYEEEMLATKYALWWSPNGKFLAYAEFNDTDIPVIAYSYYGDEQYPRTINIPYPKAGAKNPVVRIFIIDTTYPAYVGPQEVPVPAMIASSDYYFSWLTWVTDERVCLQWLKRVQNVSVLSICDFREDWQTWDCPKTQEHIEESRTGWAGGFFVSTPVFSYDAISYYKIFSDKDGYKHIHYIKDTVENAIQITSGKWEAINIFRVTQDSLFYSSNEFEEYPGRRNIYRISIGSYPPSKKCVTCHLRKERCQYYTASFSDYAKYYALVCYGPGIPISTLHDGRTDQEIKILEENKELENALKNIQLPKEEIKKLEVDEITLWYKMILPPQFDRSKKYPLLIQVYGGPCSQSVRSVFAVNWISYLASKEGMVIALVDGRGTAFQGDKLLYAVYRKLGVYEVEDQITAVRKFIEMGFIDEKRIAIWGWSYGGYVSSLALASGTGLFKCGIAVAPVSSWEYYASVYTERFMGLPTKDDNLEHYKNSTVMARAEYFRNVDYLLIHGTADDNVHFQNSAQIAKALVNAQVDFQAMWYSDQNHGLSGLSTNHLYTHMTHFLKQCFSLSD
The test can be described thus: Inhibitory activity against FAP protease activity (Z-Gly-Pro-AMC fluorescence). It is filed as biochemical. The settings on record: read-out: FAP IC50; 125 pM FAP working solution, 90 min at room temperature. The method, then:
The human recombinant FAP protein (Acrobiosystems, FAP-H82Q6) was diluted to a 125 pM FAP working solution with an assay buffer (50 mM Tris-HCl, 1 M NaCl, 1 mg/mL BSA, pH 7.5), and the FAP substrate (Z-Gly-Pro-AMC (LEONBIO, 68542-93-8)) was diluted to a 150 µM substrate working solution with the assay buffer. 40 µl of FAP working solution and 20 µl of compounds at different concentrations (4-fold dilution) were taken, then 40 µl of substrate working solution was added, and the mixture was uniformly mixed on a shaker at room temperature for 1 min. The uniformly mixed mixture was reacted at room temperature in the dark for 90 min. The fluorescence value Ex = 380 nm/Em = 460 nm was read by using a microplate reader. The original data was saved, and the IC50 value of the compound was obtained by using the original data or the Inhibition% via calculation and analyzing the data with Graphpad PRISM.

Like-named read-outs stand apart in the source and are kept apart here.

For “Hex-Cys-Pro-Pro-Thr-Gln-Phe-Cys-CH2NH-cyclopentacarboxylic acid (Cys bridge TBMB (DOTA-AET)) trifluoroacetate [Compound 14]”, the IC50 in test [1] (read-out: DPP4 IC50; 125 pM DPP4 working solution, 90 min at room temperature) was above 10 µM; in test [2], 0.28 nM.
Turning to “Hex-Cys-Pro-Pro-Thr-Gln-Phe-Cys-CH2NHAc (Cys bridge TBMB (DOTA-AET)) trifluoroacetate [Compound 10]”, the IC50 was above 10 µM in test [1] (125 pM DPP4 working solution, 90 min at room temperature; read-out: DPP4 IC50) and 0.23 nM in test [2].

By IC50 is commonly meant the concentration that inhibits the measured activity by half.

These data come from patent EP4653451A1, “POLYPEPTIDE COMPOUND AND USE THEREOF” (Chengdu New Radiomedicine Technology Co., Ltd., priority 2023, dated 2024).
